Several values for one entry are separate records, joined by “and”; a condition that tells them apart may be missing. Equal entries are not always repeated.
Legend:
[1] = molecular target: Gpi1 (glucose-6-phosphate isomerase), endogenous in mouse cerebellum (mouse (endogenous in cerebellum)) (UniProt P06745); experiment: non-reducing SDS-PAGE and western blot of tissue extract; cerebella of P18 Oxr1+/+ and Oxr1d/d mice homogenised in PBS; no cross-linker; non-reducing conditions, 8% SDS-PAGE, western blot for Gpi1; control samples with β-mercaptoethanol and boiled
[2] = molecular target: MYC-tagged Gpi1 (glucose-6-phosphate isomerase), wild-type (mouse) (UniProt P06745); experiment: cross-linking; HeLa cells co-transfected with Gpi1 and an empty vector, Oxr1-FL or Oxr1-C; scraped in PBS with 1 mM DSP, 30 min at room temperature, quenched with 50 mM Tris pH 7.8; non-reducing, unboiled samples on 8% SDS-PAGE, western blot; dimeric and tetrameric forms lost with β-mercaptoethanol and boiling

stoichiometry N [1] | stoichiometry N [2] | Substance
4 and 2 |  | Gpi1 (glucose-6-phosphate isomerase), endogenous in mouse cerebellum (from UniProt P06745 1-558) (enzyme)
 | 2 and 4 | MYC-tagged Gpi1 (glucose-6-phosphate isomerase), wild-type (from UniProt P06745 1-558) (enzyme)

From article PMC6368252
